Values quoted from earlier work as cited in article PMC5502072, “Safety, tolerability and pharmacokinetics of the fibroblast growth factor receptor inhibitor AZD4547 in Japanese patients with advanced solid tumours: a Phase I study” (Investigational New Drugs, 2017).

Test system: FGFR2-amplified GC xenografts
Conditions: several AZD4547-treated animals; cited from earlier work

For AZD4547, the Tumour regression is listed as “complete and prolonged tumour regression”.
